{"source": "patent US7365162B2", "about": "“Stabilized bioactive peptides and methods of identification, synthesis, and use” (priority 1998, dated 2008)", "assay_type": "in vivo, Sprague-Dawley rats", "conditions": "rat, intravenous bolus, plasma", "protocol": "A catheter was placed in the right jugular vein of six Male Sprague-Dawley rats for dosing and sampling. Two rats were used for each of the three compounds that were tested. The rats received an intravenous bolus injection of the peptide, and serial blood samples (0.3 ml) were obtained.", "data": [{"molecule": "CSCC[C@H](NC(=O)[C@H](CC(C)C)NC(=O)[C@H](Cc1c[nH]c2ccccc12)NC(=O)[C@H](CCC(N)=O)NC(=O)[C@@H](NC(=O)[C@H](Cc1ccccc1)NC(=O)[C@H](CC(=O)O)NC(=O)[C@H](CCC(N)=O)NC(=O)[C@H](C)NC(=O)[C@H](CCCN=C(N)N)NC(=O)[C@H](CCCN=C(N)N)NC(=O)[C@H](CO)NC(=O)[C@H](CC(=O)O)NC(=O)[C@H](CC(C)C)NC(=O)[C@H](Cc1ccc(O)cc1)NC(=O)[C@H](CCCCN)NC(=O)[C@H](CO)NC(=O)[C@H](Cc1ccc(O)cc1)NC(=O)[C@H](CC(=O)O)NC(=O)[C@H](CO)NC(=O)[C@@H](NC(=O)[C@H](Cc1ccccc1)NC(=O)[C@@H](NC(=O)CNC(=O)[C@H](CCC(N)=O)NC(=O)[C@H](CO)NC(=O)[C@@H](N)Cc1c[nH]cn1)[C@@H](C)O)[C@@H](C)O)C(C)C)C(=O)N[C@@H](CC(N)=O)C(=O)N[C@H](C(=O)O)[C@@H](C)O", "note": "[Glucagon]", "values": [{"measurement": "Percent remaining after 20 minutes", "setting": "20 minutes", "result": 0.2, "unit": "%"}, {"measurement": "Percent remaining after 60 minutes", "setting": "60 minutes", "result": 0.0, "unit": "%"}]}]}
